Screening results deposited in PubChem by National Center for Advancing Translational Sciences (NCATS).
This is a sample that favours compounds with a hit; in the whole collection about 2.3% have one here.
A549 tox: Nrf2 qHTS screen for inhibitors: counterscreen for cytotoxicity. Potency, µM (top dose mostly 46 µM), without a hit: at the top dose activity change, negative = cytotoxicity, hits mostly inhibitors. A549 ARE-Fluc cells, CellTiter-Fluor viability, 18-24 h. AID 504648, 2011. hit rate 0.16% among 390,000; also: % is scaled to controls: 0 for no effect and ±100 for the full control effect
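Cytotoxicity counterscreen: CellTiter-Fluor fluorescence was measured in A549 ARE_Fluc cells after 18-24 h of compound exposure in a concentration series. The subsequent BugLite luminescent read reports ARE-luciferase activity.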
Rango dissoc inh: qHTS Assay for Inhibitors of RanGTP induced Rango (Ran-regulated importin-beta cargo) - Importin beta complex dissociation; hit rate 0.071% among 340,000; AID 540253, 2011; Biochemical FRET Rango-importin beta, RanGTP-induced dissociation; Snurportin-1 (Homo sapiens) + GTP-binding nuclear protein Ran (Homo sapiens) + Importin …; Potency, µM (titrated, usually from 46.1 µM), inactives show at the highest dose activity change, negative = inhibition; calls by dose curve; also: % of control where 0% means no effect; nearly all actives have a fitted effect of over 45% in size
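Rango FRET biosensor (snurportin-1 IBB flanked by N-terminal EYFP and C-terminal CFP10) at 0.1 uM, with 0.25 uM importin beta in PBS, 1mM DTT, 0.02% Tween-20, 0.1% BSA. 0.6 uM Ran, 2mM GTP and 0.2 uM RCC1 were then added for 45 min at room temperature. Inhibition read as loss of FRET rise.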
Nrf2 inh: Nrf2 qHTS screen for inhibitors; A549 ARE-Fluc reporter, luciferase luminescence, 18-24 h; Potency, µM (doses to about 46 µM), for inactives: top-dose activity change, negative = inhibition, usual class: inhibitors; hit rate 2.1% among 360,000; AID 504444, 2011; also: % is scaled to controls: 0 for no effect and ±100 for the full control effect; nearly all actives have a fitted effect of over 60% in size
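In this cell-based qHTS, ARE-driven firefly luciferase in A549 cells reports Nrf2 activity; the luminescent signal after BugLite lysis is the measured value, with a prior CellTiter-Fluor read for cell health.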
Nrf2 activator: qHTS of Nrf2 Activators. hit rate 0.31% among 410,000. Potency, µM (highest dose often 46.1 µM), without a hit: at the top dose activation, most hits filed as activators. AREc32 ARE-luciferase reporter (MCF7-derived line), luminescence, 24 h. AID 624171, 2012; also: % of control where 0% means no effect; nearly all actives have a fitted effect of over 65% in size
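For detection, Steady-Glo was added and plates sat 30 min at RT; before that, AREc32_Fluc cells grown overnight in OPTI-MEM/5% FBS had been treated with 23 nL compound for 24 hr at 37 deg C.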
Rango complex inh: qHTS Assay for Inhibitors of Rango (Ran-regulated importin-beta cargo) - Importin beta complex formation | Importin subunit beta-1 (Homo sapiens), Q14974 | Rango CFP/YFP FRET sensor + importin beta, 45 min | Potency, µM (top dose mostly 92.2 µM), for inactives: at the highest dose inhibition of complex formation | hit rate 0.031% among 340,000; calls by dose curve;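 also: 0% = DMSO wells and 100% = buffer wells lacking importin beta; nearly all actives have a fitted effect of over 15% in size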
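FRET biosensor (snurportin 1 IBB flanked by EYFP and cerulean), 50 nM, with compound 5 min, then 0.125 microM importin beta in PBS, 1 mM DTT, 0.02% Tween-20, 0.1% BSA. CFP/YFP ratio read after 45 min at room temperature; pre-read flags interference.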
Active calls of the source: *. Unless noted, calls follow the shape of the dose curve; as a rule, active = well fitted curve in the direction sought with a large enough effect; inconclusive = small, poorly fitted or top-dose-only effect, or another doubt; inactive = no such curve, though single readings can be large; an effect the other way counts as inactive or inconclusive. Potency is read from the fitted curve at half-maximal effect.

By UniProt entry, the sequences of proteins in these tests, tags left out.
Importin subunit beta-1 (Homo sapiens), Q14974, UniProt Q14974, whole entry, looked up: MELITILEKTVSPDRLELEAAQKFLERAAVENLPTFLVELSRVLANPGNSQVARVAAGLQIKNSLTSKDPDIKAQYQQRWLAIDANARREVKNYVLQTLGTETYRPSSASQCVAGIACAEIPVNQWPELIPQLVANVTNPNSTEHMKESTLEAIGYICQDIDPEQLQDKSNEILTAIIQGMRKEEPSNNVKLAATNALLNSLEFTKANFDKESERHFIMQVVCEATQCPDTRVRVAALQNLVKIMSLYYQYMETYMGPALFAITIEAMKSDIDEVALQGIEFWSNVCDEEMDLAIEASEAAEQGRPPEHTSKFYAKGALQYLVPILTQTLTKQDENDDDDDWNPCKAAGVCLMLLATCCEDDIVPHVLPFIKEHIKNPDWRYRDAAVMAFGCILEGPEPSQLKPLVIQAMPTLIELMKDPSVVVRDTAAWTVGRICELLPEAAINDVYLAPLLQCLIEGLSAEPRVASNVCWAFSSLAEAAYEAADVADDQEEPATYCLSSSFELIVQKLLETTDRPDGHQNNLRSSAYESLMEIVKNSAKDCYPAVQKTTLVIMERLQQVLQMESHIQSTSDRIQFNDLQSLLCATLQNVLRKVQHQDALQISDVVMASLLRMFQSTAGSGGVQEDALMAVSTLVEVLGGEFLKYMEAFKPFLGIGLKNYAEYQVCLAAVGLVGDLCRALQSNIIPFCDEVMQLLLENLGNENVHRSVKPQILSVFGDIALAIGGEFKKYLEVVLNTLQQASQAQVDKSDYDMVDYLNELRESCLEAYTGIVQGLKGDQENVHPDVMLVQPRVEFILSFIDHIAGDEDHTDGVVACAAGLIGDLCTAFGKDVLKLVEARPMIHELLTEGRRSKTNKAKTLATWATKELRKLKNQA

Results for CCn1c(=O)[nH]c2cc(C(=O)Nc3cc(C)cc(C)c3)ccc2c1=O ?
A549 tox: 10.7%; Rango dissoc inh: -5.7%; Nrf2 inh: 16.4µM*; Nrf2 activator: 0.1%; Rango complex inh: 2.2%

What do the screens show for `CCCCCn1c(=O)[nH]c2cc(C(=O)Nc3ccc(OC)cc3)ccc2c1=O`?
A549 tox: 5.9%; Rango dissoc inh: 7.5%; Nrf2 inh: 10.1%; Nrf2 activator: 0.0%; Rango complex inh: 2.3%

How did CC1CCCCC1NC(=O)CN1C(=O)NC(Cc2ccccc2)(Cc2ccccc2)C1=O (centres undefined) do in these assays?
A549 tox: 11.0%; Rango dissoc inh: -1.6%; Nrf2 inh: inconclusive; Nrf2 activator: 1.4%; Rango complex inh: 0.9%

Results for CC(NC(=O)CN1C(=O)NC(Cc2ccccc2)(Cc2ccccc2)C1=O)C12CC3CC(CC(C3)C1)C2 (centres undefined) ?
A549 tox: inconclusive; Rango dissoc inh: 14.6%; Nrf2 inh: 25.9µM*; Nrf2 activator: -0.6%; Rango complex inh: 3.0%

Results for CCN(CC)C(=O)CSc1nc2cc3c(cc2c(=O)n1CCCCCC(=O)NCc1ccc(OC)cc1)OCO3 ?
A549 tox: -11.6%; Rango dissoc inh: 0.5%; Nrf2 inh: -26.7%; Nrf2 activator: 0.3%; Rango complex inh: 1.5%

Results for O=C(c1ccc(S(=O)(=O)N2CCCCC2)cc1)N1CCCC(C(F)(F)F)C1 (centres undefined) ?
A549 tox: 0.7%; Rango dissoc inh: -3.7%; Nrf2 inh: 12.9%; Nrf2 activator: -0.3%; Rango complex inh: -0.8%

What do the screens show for `CC(C)N1CC(C(=O)Nc2ccc(C#N)cc2)CC1=O` (centres undefined)?
A549 tox: -3.4%; Rango dissoc inh: 13.6%; Nrf2 inh: 2.8%; Nrf2 activator: -0.2%; Rango complex inh: -0.1%

Results for CC(C)c1ccc(NC(=O)C2CC(=O)N(C(C)C)C2)cc1 (centres undefined) ?
A549 tox: -21.3%; Rango dissoc inh: 18.2%; Nrf2 inh: -11.7%; Nrf2 activator: 0.3%; Rango complex inh: 4.11µM*

What do the screens show for `S=C(NN=C(c1ccccc1)c1ccccn1)N(Cc1ccccn1)Cc1ccccn1`?
A549 tox: 11.6µM*; Rango dissoc inh: -16.1%; Nrf2 inh: inconclusive; Nrf2 activator: 3.3%; Rango complex inh: inconclusive

What do the screens show for `CC1CCN(S(=O)(=O)c2ccc3c(c2)N(CC(=O)NCCN2C(C)CCCC2C)C(=O)CS3)CC1` (centres undefined)?
A549 tox: -4.2%; Rango dissoc inh: -7.6%; Nrf2 inh: 4.7%; Nrf2 activator: 2.0%; Rango complex inh: -1.3%

Results for O=C(Nc1ccc(N2CCN(Cc3ccccc3F)CC2)cc1)c1ccccc1[N+](=O)[O-] ?
A549 tox: -0.7%; Rango dissoc inh: -18.2%; Nrf2 inh: -23.0%; Nrf2 activator: -0.4%; Rango complex inh: 0.3%

Results for O=C(c1ccc(N2CCCC2=O)cc1)N1CCN(c2ccccc2Cl)CC1 ?
A549 tox: 7.6%; Rango dissoc inh: -11.8%; Nrf2 inh: -16.0%; Nrf2 activator: -0.4%; Rango complex inh: -0.1%

What do the screens show for `Cc1ccc(NC(=O)c2ccc([N+](=O)[O-])o2)cc1C`?
A549 tox: inconclusive; Rango dissoc inh: 2.1%; Nrf2 inh: -7.2%; Nrf2 activator: inconclusive; Rango complex inh: 10.5%

Results for O=C(Nc1ccccc1N1CCCC1)c1ccc([N+](=O)[O-])o1 ?
A549 tox: inconclusive; Rango dissoc inh: 8.4%; Nrf2 inh: 16.4µM*; Nrf2 activator: inconclusive; Rango complex inh: -1.2%

What do the screens show for `O=C(Nc1ccc2[nH]c(=O)[nH]c2c1)c1ccc([N+](=O)[O-])o1`?
A549 tox: -1.3%; Rango dissoc inh: -11.8%; Nrf2 inh: 18.3%; Nrf2 activator: 12.6µM*; Rango complex inh: -2.9%

A section taken from the entries so far:
Results for CCn1c(=O)[nH]c2cc(C(=O)Nc3cc(C)cc(C)c3)ccc2c1=O ?
A549 tox: 10.7%; Rango dissoc inh: -5.7%; Nrf2 inh: 16.4µM*; Nrf2 activator: 0.1%; Rango complex inh: 2.2%

What do the screens show for `CCCCCn1c(=O)[nH]c2cc(C(=O)Nc3ccc(OC)cc3)ccc2c1=O`?
A549 tox: 5.9%; Rango dissoc inh: 7.5%; Nrf2 inh: 10.1%; Nrf2 activator: 0.0%; Rango complex inh: 2.3%
